Assay results as given in ChEMBL document CHEMBL1145094, “A novel and selective 5-HT2 receptor agonist with ocular hypotensive activity: (S)-(+)-1-(2-aminopropyl)-8,9-dihydropyrano[3,2-e]indole” (J Med Chem, 2003).

By UniProt entry, the sequences of proteins in these tests, tags left out.
UniProt P14842, whole entry: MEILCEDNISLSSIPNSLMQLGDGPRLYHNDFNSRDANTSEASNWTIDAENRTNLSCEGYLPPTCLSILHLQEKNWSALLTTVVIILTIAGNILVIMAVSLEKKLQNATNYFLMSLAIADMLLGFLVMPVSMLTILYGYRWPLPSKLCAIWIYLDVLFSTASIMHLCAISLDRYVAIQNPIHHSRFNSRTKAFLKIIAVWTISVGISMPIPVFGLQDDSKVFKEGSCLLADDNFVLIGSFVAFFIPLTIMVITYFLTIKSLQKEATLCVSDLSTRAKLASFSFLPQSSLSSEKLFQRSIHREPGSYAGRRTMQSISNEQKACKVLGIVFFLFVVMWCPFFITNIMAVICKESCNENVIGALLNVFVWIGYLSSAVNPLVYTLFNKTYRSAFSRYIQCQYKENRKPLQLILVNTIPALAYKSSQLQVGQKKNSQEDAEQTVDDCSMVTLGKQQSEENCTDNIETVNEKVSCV

Biological target: 5-hydroxytryptamine receptor 2A (Rattus norvegicus) (UniProt P14842)
Experiment: In vitro efficacy against rat 5-hydroxytryptamine 2A receptor determined by using PI assay (Emax)

SMILES: COc1cc(C[C@@H](C)N)c(OC)cc1I
- Efficacy: 82%
